Our source for the activity change values is PubChem BioAssay AID2094 (Broad Institute, 2009).

Molecules are shown by their SMILES. This is a selection; strong and weak results do not stand in their true shares. Activity calls are given as the source filed them. No stated cut-off is given here; in the data, active means activity change below about -75% (passing the limit was not always enough); inconclusive means no clear call, values can overlap the other calls.

This assay is described as follows: modulation of AI-2 quorum-sensing luminescence – JMH597 strain, luminescence/OD600 ratio, primary screen (AID 2094).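 Further: luminescence divided by OD600 gain over 9 h not by final OD600 alone.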 The note with it: Vibrio harveyi JMH597 AI-2 luminescence/OD600 ratio, 9 h; at 7.5 µM; hits give low values; 0 = neutral-control median; strain lacks LuxN and CqsS sensors.
For the compound `CC(=O)Nc1ccc([As](=O)(O)O)c(O)c1`, the activity change is inactive: 19.1%. Take `CC(=O)Nc1ccc(Oc2c([N+](=O)[O-])cc([N+](=O)[O-])cc2[N+](=O)[O-])cc1`: the activity change was inactive: 30.5%. In the case of `O=P1(Nc2nc3ccc(Cl)cc3s2)COc2ccccc2O1` (configuration not stated), the activity change is inactive: -7.59%. To `CCOc1ccc(C2=NCC(CBr)S2)cc1` (configuration not stated) belongs inactive: 19.6%; to `CC(C)(C)C(=O)NC(Sc1ccccc1)C(Cl)(Cl)Cl` (configuration not stated), inactive: 11.8%. Under `CCCOP(=S)(Nc1nc(N)cc(=O)[nH]1)OCCC` stands inactive: 13.6%; under `Cc1ccc(NCCc2c([N+](=O)[O-])cc([N+](=O)[O-])cc2[N+](=O)[O-])cc1`, inactive: 19.1%. As for `Nc1cccc2c([As](=O)(O)O)cccc12`, the activity change is inactive: 29.9%.

With `COc1cc(C2NCCC3(OCCO3)C2(C)C)cc(OC)c1OC` (configuration not stated), the activity change was inactive: 3.1%. With `CCOP(=O)(Nc1cccc2ccccc12)OCC`, the activity change is inactive: 9.1%. In the case of `O=[As](O)(O)c1cccnc1`, the activity change is inactive: 8.27%. With `COc1cc(C(=O)NCC2(N3CCOCC3)CCCCC2)cc(Cl)c1OC(C)C`, the activity change is inactive: 24.1%. For the compound `CS(=O)(=O)c1ccc(Cl)c(NC(=O)COC(=O)C(O)(c2ccccc2)c2ccccc2)c1`, the activity change was inactive: 24.8%. As to `O=C(OC1CN2CCC1CC2)c1ccc(Cl)cc1` (configuration not stated), the activity change was inactive: 13.6%. Consider `Cc1cccc(OCC(=O)OC2CN3CCC2CC3)c1` (configuration not stated), for which the activity change is inactive: 11.7%.

Turning to `O=[As](O)(c1cccc(O)c1)c1cccc(O)c1`, the activity change is inactive: -6.08%. Under `NC(=O)Nc1ccc([As](=O)(O)O)cc1` stands inactive: 9.61%; under `O=[N+]([O-])c1ccc2c(c1)nnn2O`, inactive: 10%. For `CN(C)C(=O)c1cc([N+](=O)[O-])cc2c1-c1c(cc([N+](=O)[O-])cc1[N+](=O)[O-])C2=O`, the activity change is inactive: 63.2%.

For the compound `CN(C(=O)Cc1ccc(Cl)c(Cl)c1)[C@H]1CC[C@@]2(CCCO2)C[C@@H]1N1CCCC1`, the activity change was inactive: -6.63%.

Take `N#CCCN(C(=O)COC(=O)C(O)(c1ccccc1)c1ccccc1)c1ccc(F)cc1`: the activity change was inactive: 26.3%. As for `CCOP1(=S)c2c(C)nn(CCC#N)c2N=C(c2ccc(F)cc2)N1C` (configuration not stated), the activity change is inactive: 12.6%. Take `CN(C(=O)Cc1ccccc1)[C@@H]1CC[C@]2(CCCO2)C[C@H]1N1CCCC1`: the activity change was inactive: 7.91%.

For the compound `CS(=O)(=O)c1cc([N+](=O)[O-])c2no[n+]([O-])c2c1`, the activity change was inactive: 28.6%.

In the case of `CCOP1(=S)c2c(C)nn(CCC#N)c2N=C(c2ccccc2F)N1C` (configuration not stated), the activity change is inactive: 8.37%. As for `O=P(Nc1nccs1)(Oc1ccccc1)Oc1ccccc1`, the activity change is inactive: 18.6%.

Regarding `O=P(Nc1nccs1)(c1ccccc1)c1nc2ccccc2s1` (configuration not stated), the activity change is inactive: 27.9%.
